System: human platelets
Test: Inhibition of collagen-stimulated aggregation of human platelets in platelet-rich plasma (aggregometer)
Type: cell-based
Conditions: ASA 3×10^-5, 10^-4 and 3×10^-4 M, separately
Description: Human platelet-rich plasma (PRP) is incubated in an aggregometer at 37° C. and mixed with […] of collagen to cause aggregation. […] The course of the aggregation is recorded in the aggregometer. 10 minutes after collagen addition, the samples are centrifuged at 3000 rpm and the supernatant is tested with an enzyme linked immunosorbent assay (ELISA) for its content of plasminogen activator inhibitor-1 (PAI-1) and with a radioimmunoassay (RIA) for the content of platelet-derived growth factor (PDGF).

SMILES: CC(=O)Oc1ccccc1C(=O)O [ASA, acetylsalicylic acid]
- platelet aggregation inhibition, in words: ineffective or slightly effective

From patent US5093325A, “Combination preparation having antithrombotic action” (priority 1989, dated 1992)
